Measured values as given in ChEMBL document CHEMBL3272301, “Improved delivery through biological membranes. 2. Distribution, excretion, and metabolism of N-methyl-1,6-dihydropyridine-2-carbaldoxime hydrochloride, a pro-drug of N-methylpyridinium-2-carbaldoxime chloride” (1976).

Columns and labels:
[1] = Drug excretion in beagle dog urine assessed as radioactivity treated with [14C]-labelled N-Methyl-1,6-dihydropyridine-2-carbaldoxime hydrochloride at 4.5 mg/kg, iv by liquid scintillation counting; settings: in vivo, strain beagle
[2] = Drug excretion in po dosed beagle dog urine assessed as metabolite formation treated with [14C]-labelled N-Methyl-1,6-dihydropyridine-2-carbaldoxime hydrochloride by radiochromatography; settings: in vivo, strain beagle
[3] = Drug excretion in iv dosed beagle dog urine assessed as metabolite formation treated with [14C]-labelled N-Methyl-1,6-dihydropyridine-2-carbaldoxime hydrochloride by radiochromatography; settings: in vivo, strain beagle
[4] = Drug excretion in po dosed beagle dog urine assessed as metabolite formation by radiochromatography; settings: in vivo, strain beagle
[5] = Dissociation constant, pKa of the compound
[6] = Retardation factor of the compound
Plasma [7] = test: Plasma concentration in beagle dog at 5 mg/kg, iv measured after 10 mins; settings: in vivo, strain beagle
Plasma [8] = test: Plasma concentration in beagle dog at 5 mg/kg, iv measured after 120 mins; settings: in vivo, 2 h, strain beagle
[9] = Drug level in beagle dog whole blood at 5 mg/kg, iv measured after 5 mins; settings: in vivo, strain beagle
[10] = Drug excretion in beagle dog urine assessed as radioactivity at 7 mg/kg, iv by liquid scintillation counting; settings: in vivo, strain beagle
[11] = Drug excretion in beagle dog urine at 43.9 mg/kg, po; settings: in vivo, strain beagle
[12] = Drug excretion in beagle dog feces at 43.9 mg/kg, po; settings: in vivo, strain beagle
[13] = Drug excretion in po dosed beagle dog urine; settings: in vivo, strain beagle
[14] = Drug excretion in po dosed human; settings: in vivo
[15] = Drug excretion in human at 1 g, po; settings: in vivo
[16] = Drug excretion in po dosed beagle dog urine treated with [14C]-labelled N-Methyl-1,6-dihydropyridine-2-carbaldoxime hydrochloride by radiochromatography; settings: in vivo, strain beagle
[17] = Drug excretion in iv dosed beagle dog urine treated with [14C]-labelled N-Methyl-1,6-dihydropyridine-2-carbaldoxime hydrochloride by radiochromatography; settings: in vivo, strain beagle
[18] = Drug excretion in po dosed beagle dog urine by radiochromatography; settings: in vivo, strain beagle

CN1CC=CC=C1/C=N/O.Cl
Drug excretion [1]: 98 %ID
Drug excretion [2]: 35 %ID
Drug excretion [3]: 34 %ID
Drug excretion [4]: 13 %ID
pKa [5]: 6.32
Rf [6]: 0.33

Cn1ccccc1=O
Drug excretion [2]: 15 %ID
Rf [6]: 0.08

C[n+]1ccccc1C#N
Rf [6]: 0.08

C[n+]1ccccc1/C=N/O.[Cl-]
Cp (Plasma [7]): 11500 ng/mL
Cp (Plasma [8]): 800 ng/mL
Drug uptake [9]: 5500 ng/mL
Drug excretion [10]: 92.2 %ID
Drug excretion [11]: 79.8%
Drug excretion [12]: 62.1%
Drug excretion [13]: 65%
Drug excretion [14]: 27%
Drug excretion [15]: 34%
Drug excretion [16]: 50%
Drug excretion [17]: 66%
Drug excretion [18]: 87%
Rf [6]: 0.53

Cn1ccc(=O)cc1C(N)=O
Drug excretion [2]: 15 %ID
Rf [6]: 0.08
